Results taken from PubChem BioAssay AID651957 (The Scripps Research Institute Molecular Screening Center, 2012).
The entries are a selection whose mix differs from that of the whole data set. Activity calls are given as the source filed them.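 The calls were made as follows: active = inhibition above the mean inhibition of all tested compounds plus 3 SD, set per campaign (cut at about 52% in these data); inactive = the rest.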

The chains behind the UniProt entries cited, without tags or fusion partners.
UniProt Q15596, whole entry: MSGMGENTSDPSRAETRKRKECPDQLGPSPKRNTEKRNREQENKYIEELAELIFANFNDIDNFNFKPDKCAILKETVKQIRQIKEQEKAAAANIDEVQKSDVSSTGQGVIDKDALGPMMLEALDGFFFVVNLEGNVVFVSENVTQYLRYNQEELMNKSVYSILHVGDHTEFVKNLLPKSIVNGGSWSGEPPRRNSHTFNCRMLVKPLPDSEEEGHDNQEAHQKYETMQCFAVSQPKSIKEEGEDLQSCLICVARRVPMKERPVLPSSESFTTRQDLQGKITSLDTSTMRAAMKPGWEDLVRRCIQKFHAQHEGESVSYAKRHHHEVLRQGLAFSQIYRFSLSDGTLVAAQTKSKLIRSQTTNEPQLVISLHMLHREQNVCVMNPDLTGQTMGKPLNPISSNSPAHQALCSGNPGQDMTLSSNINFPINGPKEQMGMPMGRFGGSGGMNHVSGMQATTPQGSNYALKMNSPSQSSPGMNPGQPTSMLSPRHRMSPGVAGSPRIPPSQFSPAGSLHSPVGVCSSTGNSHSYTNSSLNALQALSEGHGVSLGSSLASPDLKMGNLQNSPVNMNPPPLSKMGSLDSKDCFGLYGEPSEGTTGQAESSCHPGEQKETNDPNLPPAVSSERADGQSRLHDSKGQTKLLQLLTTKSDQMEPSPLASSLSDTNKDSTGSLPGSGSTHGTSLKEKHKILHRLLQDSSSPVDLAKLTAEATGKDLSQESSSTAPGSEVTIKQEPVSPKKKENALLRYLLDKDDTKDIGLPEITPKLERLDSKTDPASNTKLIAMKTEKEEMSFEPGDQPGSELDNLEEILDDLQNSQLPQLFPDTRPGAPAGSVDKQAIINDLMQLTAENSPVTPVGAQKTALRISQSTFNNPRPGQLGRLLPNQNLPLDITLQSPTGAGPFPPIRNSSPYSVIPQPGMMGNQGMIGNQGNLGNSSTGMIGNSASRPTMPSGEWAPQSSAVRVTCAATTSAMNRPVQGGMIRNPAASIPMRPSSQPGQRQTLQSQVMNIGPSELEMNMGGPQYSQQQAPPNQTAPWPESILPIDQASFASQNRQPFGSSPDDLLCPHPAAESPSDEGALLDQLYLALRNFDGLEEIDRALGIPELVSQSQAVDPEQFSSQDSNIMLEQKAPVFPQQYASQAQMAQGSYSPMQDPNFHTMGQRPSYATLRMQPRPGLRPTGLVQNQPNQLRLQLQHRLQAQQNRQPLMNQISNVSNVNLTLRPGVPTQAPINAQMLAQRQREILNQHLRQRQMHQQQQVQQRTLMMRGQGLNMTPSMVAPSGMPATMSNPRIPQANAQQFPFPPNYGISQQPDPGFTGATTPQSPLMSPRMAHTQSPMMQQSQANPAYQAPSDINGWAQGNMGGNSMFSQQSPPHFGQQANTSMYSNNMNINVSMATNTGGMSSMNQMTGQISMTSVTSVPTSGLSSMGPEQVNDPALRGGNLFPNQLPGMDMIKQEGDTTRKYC

Target: Nuclear receptor coactivator 2 (Homo sapiens) (UniProt Q15596)
Experiment: inhibition of GAL4-SRC2 driven luciferase reporter, primary screen, SRC2 inhibitor project, cell-based, luminescence (AID 651957);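 also: 0% = DMSO treated cells and 100% = cells given Gossypol at 36 µM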
Conditions: HEK293 GAL4-SRC2 luciferase reporter, at 9 µM, active compounds read high

Row | SMILES | inhibition
1 | O=C(NCC1(N2CCOCC2)CCCCC1)c1cc2ccccc2o1 | inactive: -17.4%
2 | Cc1cc(C)cc(N(C(=O)c2ccccc2)C2CCN(C(=O)OC(C)(C)C)CC2)c1 | inactive: -2.95%
3 | O=c1[nH]c2ccccc2n1C1CCN(C(c2ccccc2OC(F)(F)F)c2nnnn2C2CCCCC2)CC1 (stereo not drawn) | inactive: -5.73%
4 | O=C(NCC1(N2CCCCC2)CCCCC1)c1ccc(Cl)nc1 | inactive: -13.7%
5 | CCCCn1nnnc1C(c1ccc(OC)cc1)N1CCC(n2c(=O)[nH]c3ccccc32)CC1 (stereo not drawn) | inactive: 1.46%
6 | CCOC(=O)N1CCC(Nc2ccc(OC)cc2)CC1 | inactive: -18.5%
7 | COc1ccc(Cl)cc1C(=O)NCC1(N2CCOCC2)CCCCC1 | inactive: 12.4%
8 | O=c1[nH]c2ccccc2n1C1CCN(C(c2cc3ccccc3o2)c2nnnn2C2CCCCC2)CC1 (stereo not drawn) | inactive: -32.9%
9 | O=C(OC1CN2CCC1CC2)C1c2ccccc2Oc2ccccc21 (stereo not drawn) | inactive: -27.2%
10 | N#CC1(Nc2ccccc2)CCN(Cc2ccccc2)CC1 | inactive: -5.15%
11 | O=C(NCC1(N2CCCCC2)CCCCC1)c1ccc(Cl)s1 | inactive: -0.6%
12 | CCCCn1nnnc1C(c1cccs1)N1CCC(n2c(=O)[nH]c3ccccc32)CC1 (stereo not drawn) | inactive: 27.8%
13 | O=C(NCC1(N2CCCCC2)CCCCC1)c1cccs1 | inactive: -1.15%
14 | CCCCn1nnnc1C(CC)N1CCC(n2c(=O)[nH]c3ccccc32)CC1 (stereo not drawn) | inactive: 11.3%
15 | O=C(NCC1(N2CCCCC2)CCCCC1)c1ccc(=O)[nH]c1 | inactive: -18.9%
16 | CCC(c1nnnn1C1CCCC1)N1CCC(n2c(=O)[nH]c3ccccc32)CC1 (stereo not drawn) | inactive: -1.1%
17 | CC(C)(C)OC(=O)N1CCC(N(C(=O)c2ccccc2)c2ccc(F)cc2)CC1 | inactive: 0.23%
18 | COc1ccc(C(=O)NCC2(N3CCCCC3)CCCCC2)c(OC)c1OC | inactive: -3.67%
19 | COc1ccc(C(=O)NCC2(N3CCCCC3)CCCCC2)cc1 | inactive: 6.15%
20 | Cc1cccc(NC2(C#N)CCN(Cc3ccccc3)CC2)c1 | inactive: -2.42%
21 | CSc1ccccc1C(=O)NCC1(N2CCCCC2)CCCCC1 | inactive: 14.8%
22 | O=C(NCC1(N2CCCCC2)CCCCC1)c1cncc(Br)c1 | inactive: -18.1%
23 | CN1CCC(Nc2cccc(F)c2)CC1 | inactive: -1.52%
24 | CCCOc1ccc(C(=O)NCC2(N(C)C)CCCCC2)cc1OC | inactive: 13.7%

Row | SMILES | inhibition
25 | Cc1ccc(C(=O)NCC2(N(C)C)CCCCC2)o1 | inactive: -2.58%
26 | COc1ccc(C(c2nnnn2C2CCCC2)N2CCC(n3c(=O)[nH]c4ccccc43)CC2)cc1 (stereo not drawn) | inactive: -31.5%
27 | CN(C)c1cccc(C(=O)NCC2(N3CCCCC3)CCCCC2)c1 | inactive: -31.9%
28 | COC(=O)C1(Nc2ccccc2)CCN(Cc2ccccc2)CC1 | inactive: -20.4%
29 | COc1ccc(CN(CCCl)CCCl)cc1Cl | inactive: 24.2%
30 | CC(C)c1ccc(NC2CCN(C(=O)OC(C)(C)C)CC2)cc1 | inactive: -12.9%
31 | CCCCn1nnnc1C(c1ccnc2ccccc12)N1CCC(n2c(=O)[nH]c3ccccc32)CC1 (stereo not drawn) | inactive: -18.2%
32 | CCC(c1nnnn1C(C)(C)C)N1CCC(n2c(=O)[nH]c3ccccc32)CC1 (stereo not drawn) | inactive: 0.5%
33 | O=C(NCC1(N2CCOCC2)CCCCC1)c1cc(F)c(F)cc1Cl | inactive: -13.9%
34 | COc1cc(OC)c(C(=O)NCC2(N(C)C)CCCCC2)cc1OC | inactive: -13.1%
35 | O=C(NCC1(N2CCCCC2)CCCCC1)c1cccc(C(F)(F)F)c1 | inactive: -25.8%
36 | CCCCn1nnnc1C(c1cccc2ccccc12)N1CCC(n2c(=O)[nH]c3ccccc32)CC1 (stereo not drawn) | inactive: 1.32%
37 | CC(C)c1ccc(C(=O)NCC2(N3CCOCC3)CCCCC2)cc1 | inactive: -13.1%
38 | COc1ccc(NC2CCN(C(=O)OC(C)(C)C)CC2)cc1 | inactive: -16.8%
39 | CN1CCN(CCOC(=O)C(O)(c2ccccc2)c2ccccc2)CC1 | inactive: -3.24%
40 | O=C(NCC1(N2CCOCC2)CCCCC1)c1cc(=O)[nH]c2ccccc12 | inactive: -22.7%
41 | COc1cc(C(=O)NCC2(N3CCCCC3)CCCCC2)ccc1OC(F)F | inactive: -35%
42 | O=C(NCC1(N2CCCCC2)CCCCC1)c1ccc(OC(F)F)cc1 | inactive: 1.46%
43 | CC(C)(C)n1nnnc1C(c1ccccc1OC(F)(F)F)N1CCC(n2c(=O)[nH]c3ccccc32)CC1 (stereo not drawn) | inactive: 3.24%
44 | CSc1ccc(C(=O)NCC2(N3CCOCC3)CCCCC2)cc1 | inactive: -41%
45 | O=C(NCC1(N2CCCCC2)CCCCC1)c1cccc([N+](=O)[O-])c1 | inactive: -19.6%
46 | N#CC1(Nc2ccccc2)CCN(CCc2ccccc2)CC1 | inactive: -14.8%
47 | O=c1[nH]c2ccccc2n1C1CCN(C(c2ccccc2OC(F)(F)F)c2nnnn2C2CCCC2)CC1 (stereo not drawn) | inactive: 9.63%
48 | CCN1CCC(Nc2ccc(Cl)cc2)CC1 | inactive: 1.7%
